This note sets out measurements from ChEMBL document CHEMBL4014315 (J Med Chem, 2017).

The assay in a line: Therapeutic index, ratio of GI50 for ABCG2 over-expressing MDCK2 cells to IC50 for recombinant human GFP-fused ABCG2 expressed in MDCK2 cells. Type of assay: cell-based.

As to `O=[N+]([O-])c1ccc(Nc2nc(-c3cccnc3)nc3ccccc23)cc1`, the TI stood at 1140.
